Experimental data published in US20230337678A1, “NITRIC OXIDE-RELEASING ANTIBACTERIAL COMPOUNDS, FORMULATIONS, AND METHODS PERTAINING THERETO” (KNOW BIO, LLC, priority 2020, published 2023).

Conditions: 2 moles of NO per mole, single diazeniumdiolate group

With [O-]/[N+](=N\O)C(/[N+]([O-])=N/O)/[N+]([O-])=N/O as the compound, how does the “theoretical NO load / yield” value read?
The value was 7.6 μmol NO/mg.
